The source of these data is US4091202A, “N-methanesulfonic acid derivatives of 3',4'-dideoxykanamycin B” (Zaidan Hojin Biseibutsu Kagaku Kenkyu Kai, priority 1975, dated 1978).

This data set can be described thus: in vivo. Particulars: mouse, iv.

In general, LD50 refers to the dose expected to kill half of the subjects tested. A lower LD50 goes with a more toxic substance. As for `NC[C@@H]1CC[C@@H](N)[C@@H](O[C@H]2[C@H](O)[C@@H](O[C@H]3O[C@H](CO)[C@@H](O)[C@H](N)[C@H]3O)[C@H](N)C[C@@H]2N)O1` [DKB, 3',4'-dideoxykanamycin B], the LD50 was 100 to 120 mg/kg.
